Data on 72 molecules can be found in PubChem BioAssay AID624171 (National Center for Advancing Translational Sciences (NCATS), 2012).

Structures are written as SMILES. The list shows a part of the results, in another mix than the full data. The source made the active and inactive calls. The call rests on the fitted dose curve; in most records, active means well fitted activation curve with a large enough effect; inconclusive means small, poorly fitted or top-dose-only effect; inactive means flat fitted curve, though single readings scatter.

The nature of this experiment: qHTS of Nrf2 Activators. Further: % of control where 0% means no effect; nearly all actives have a fitted effect of over 65% in size. Conditions: AREc32 ARE-luciferase reporter (MCF7-derived line), luminescence, 24 h; at 46.1 µM (top of the series) unless noted. The text has this: Many diseases have some form of oxidative stress injury and ties to inflammation, causing a host of problems for the patient. The antioxidant response element (ARE) plays an important role in alleviating the harmful effects of oxidative stress. The antioxidant response element (ARE) is a transcriptional regulatory element involved in the activation of genes coding for a number of antioxidant proteins and detoxifying enzymes. These enzymes work in concert to protect tissues from oxidative insults and chemical toxicities in human hepatocytes and immune cells. The protective effects of ARE activation are primarily triggered through Nrf2 (NF-E2-related factor) binding to and activating AREs. It is known that Nrf2 controls the production of over 250 antioxidant and detoxification proteins (Hu et al., 2006), thereby protecting tissues by increasing cellular antioxidant content and suppressing inflammatory signaling pathways. The transcription factor Nrf2 is a central link between oxidative chemicals, such as phenolic antioxidants and electrophilic compounds, and the activation of ARE. Nrf2 levels are constitutively low as a consequence of its interaction with Keap1, which targets its degradation (Zipper and Mulcahy, 2002). Electrophiles react with key cysteine residues in Keap1, releasing Nrf2 and allowing its translocation to the nucleus. Once within the nucleus, Nrf2 complexes with coactivators such as p300, and binds to the AREs to induce gene transcription of cytoprotective enzymes, resulting in the prevention of toxicity. Activation of Nrf2 protects tissues by increasing cellular antioxidant content and suppressing inflammatory signaling pathways. Identifying novel and potent Nrf2 activators by using the AREc32 cell line to detect ARE activation by small molecules will lead to the identification and development of probes to study protective pathways in multiple tissues. These specific probes are essential to study the ARE pathway, and eventually to determine whether this pathway does activate genes that could protect against a host of diseases, including cardiovascular diseases, obesity, diabetes, Alzheimer's, and Parkinson's disease.
This project's aim is to identify novel and potent Nrf2 activators by using the AREc32 cell line to detect ARE activation by small molecules, which will lead to the identification and development of probes to study the ARE pathway.
NIH Chemical Genomics Center [NCGC]
NIH Molecular Libraries Probe Centers Network [MLPCN]
Assay Submitter (PI): Curtis Klaassen, University of Kansas Medical Center
5 uL of 1000 cells/well of AREc32_Fluc cells are seeded into 1536-well plate in OPTI-MEM medium with 5% FBS. The plates are incubated overnight at 37 deg C with 5% CO2. Then through pin tool transfer, 23 nL of compounds are added to each well before a 24 hr incubation at 37 deg C with 5% CO2. After the addition of 2.5 uL of Steady-Glo. the plates are kept at RT for 30 min, before they are read on the ViewLux.
On to `COc1ccccc1CNC(=O)COC(=O)C(O)(c1ccccc1)c1ccccc1`, for which the activation is inactive: -0.771%. On to `CC(C)(C)C(=O)NC(Sc1ncccn1)C(Cl)(Cl)Cl` (configuration not stated), for which the activation was inactive: -0.0193%. As for `Clc1n[nH]nc1-c1nn[nH][15n]1`, the activation was inactive: 0.0982%. For `O=P1(N(CCCl)CCCl)NCCC(C(F)(F)F)O1` (configuration not stated), the activation was inactive: -0.227%. Under `CCOP(=O)(NC(=NC(C)c1ccccc1)NC(C)c1ccccc1)OCC` (configuration not stated) stands inactive: -0.832%; under `CCC1=CC2Cc3nc4ccc(Cl)cc4c(N)c3C(C1)C2` (configuration not stated), inactive: -5.27%. Under `O=P1(Nc2ccccn2)COc2ccccc2OC1` stands inactive: 4.75%; under `CN(CCCl)Cc1cc(Cl)c(NC2=NCCN2)c(Cl)c1`, inactive: 0.636%. With `CCOP(=O)(Nc1ccc(C)cn1)OCC` the figure was inactive: 0.386%; with `CCOP(=O)(Nc1cccc2ccccc12)OCC`, inactive: 3.94%.

Take `COc1cc(C2NCCC3(OCCO3)C2(C)C)cc(OC)c1OC` (configuration not stated): the activation is inactive: -0.587%. Under `Cc1ccc(NCCc2c([N+](=O)[O-])cc([N+](=O)[O-])cc2[N+](=O)[O-])cc1` stands inactive: 24.2%; under `Nc1cccc2c([As](=O)(O)O)cccc12`, inactive: -0.377%; under `CCCOP(=S)(Nc1nc(N)cc(=O)[nH]1)OCCC`, inactive: -0.771%. On to `O=[As](O)(c1cccc(O)c1)c1cccc(O)c1`, for which the activation was inactive: 2.76%. Under `Cc1cccc(OCC(=O)OC2CN3CCC2CC3)c1` (configuration not stated) stands inactive: 0.606%; under `O=C(OC1CN2CCC1CC2)c1ccc(Cl)cc1` (configuration not stated), inactive: -0.47%. With `CS(=O)(=O)c1ccc(Cl)c(NC(=O)COC(=O)C(O)(c2ccccc2)c2ccccc2)c1` the figure was inactive: 0.0573%. As for `COc1cc(C(=O)NCC2(N3CCOCC3)CCCCC2)cc(Cl)c1OC(C)C`, the activation was inactive: 2.6%.

As to `O=[As](O)(O)c1cccnc1`, the activation is inactive: -0.29%. Under `CN(C(=O)Cc1ccccc1)[C@@H]1CC[C@]2(CCCO2)C[C@H]1N1CCCC1` stands inactive: 3.53%; under `CCOP1(=S)c2c(C)nn(CCC#N)c2N=C(c2ccc(F)cc2)N1C` (configuration not stated), inactive: -0.352%. With `N#CCCN(C(=O)COC(=O)C(O)(c1ccccc1)c1ccccc1)c1ccc(F)cc1` the figure was inactive: 0.096%. With `CN(C(=O)Cc1ccc(Cl)c(Cl)c1)[C@H]1CC[C@@]2(CCCO2)C[C@@H]1N1CCCC1` the figure was inactive: -1.11%; with `CN(C)C(=O)c1cc([N+](=O)[O-])cc2c1-c1c(cc([N+](=O)[O-])cc1[N+](=O)[O-])C2=O`, inactive: -1.31%. As for `O=[N+]([O-])c1ccc2c(c1)nnn2O`, the activation is inactive: 0.295%. With `NC(=O)Nc1ccc([As](=O)(O)O)cc1`, the activation was inactive: 0.678%. Under `O=C(O)COc1ccc([As](=O)(O)O)cc1[N+](=O)[O-]` stands inactive: -0.853%; under `Nc1ccccc1[As](=O)(O)c1ccccc1`, inactive: -0.467%. With `O=P(Nc1nccs1)(Oc1ccccc1)Oc1ccccc1` the figure was inactive: -1%. Under `CCOP1(=S)c2c(C)nn(CCC#N)c2N=C(c2ccccc2F)N1C` (configuration not stated) stands inactive: -0.192%; under `O=[N+]([O-])c1cc([N+](=O)[O-])c(-c2ccn[nH]2)s1`, inactive: -1.05%; under `CCN(CC)C(=S)SC(NC=O)C(Cl)(Cl)Cl` (configuration not stated), inactive: 2.01%.

For `O=C(OC1CN2CCC1CC2)c1cccc2[nH]cnc12` (configuration not stated), the activation was inactive: -0.863%. Under `CC(C)NC(=O)NP(=O)(Oc1ccccc1)Oc1ccccc1` stands inactive: -0.474%; under `ClCCSc1nnc(-c2cccnc2)o1`, inactive: -0.198%; under `CC(C)c1ccc(OP(=O)(Nc2ccccn2)Oc2ccccc2F)cc1` (configuration not stated), inactive: -0.123%. Under `COC(=O)C1(C)COP(=O)(N2CCCCCC2)OC1` (configuration not stated) stands inactive: 0.255%; under `Cc1ccc(OP(=O)(Nc2ccc([N+](=O)[O-])cn2)Oc2ccc(C)cc2)cc1`, inactive: -0.399%. Under `[N-]=[N+]=NC1CCCCC1NC(=O)c1cc([N+](=O)[O-])cc([N+](=O)[O-])c1` (configuration not stated) stands inactive: -0.0083%; under `Cc1ccc2nc3c(c(C)c2c1)CC(C(Cl)Cl)S3` (configuration not stated), inactive: 5.23%; under `COc1cc(C(=O)NCC2(N3CCOCC3)CCCCC2)ccc1OCC(C)C`, inactive: -1.11%. Consider `O=[N+]([O-])c1ccc(-c2cc([N+](=O)[O-])c(O)c([N+](=O)[O-])c2)cc1`, for which the activation is inactive: 4.21%. With `O=[As](O)(c1ccc(O)cc1)c1ccccc1O` the figure was inactive: 0.121%; with `C[As](=O)(O)c1cccc(C(=O)O)c1`, inactive: -0.718%; with `O=[N+]([O-])c1cc(Oc2ccc([N+](=O)[O-])cc2C(F)(F)F)cc([N+](=O)[O-])c1`, inactive: 3.94%. Under `COc1ccc(N/C(=N/P(=O)(N2CCOCC2)N2CCOCC2)N2CCOCC2)cc1` stands inactive: 0.175%; under `O=P1(N(CCCl)CCCl)Nc2ccccc2N1`, inactive: 3.6%. With `O=P1(N(CCCl)CCCl)OCCCN1CCCl` (configuration not stated) the figure was inactive: -0.414%. Take `COc1cc(I)ccc1[As](=O)(O)O`: the activation is inactive: -0.0913%. With `COc1ccc2nc(NP(=O)(c3ccccc3)c3ccccc3)sc2c1` the figure was inactive: -0.0589% [at 9.22 µM]. Under `Cc1c2c(nc3ccccc13)SC(C(Cl)Cl)C2` (configuration not stated) stands inactive: 9.83%. In the case of `Cc1cc(=O)[nH]c(N[N+](=O)[O-])n1`, the activation is inactive: 0.0044%. Under `O=C(OC1CN2CCC1CC2)C12CC3CC(CC(C3)C1)C2` (configuration not stated) stands inactive: 0.113%; under `CCC(C)N(CC(C)C)C(=S)SC(NC(C)=O)C(Cl)(Cl)Cl` (configuration not stated), inactive: 3.3%; under `O=C(OC1CN2CCC1CC2)c1cccc([N+](=O)[O-])c1` (configuration not stated), inactive: 0.173%. Turning to `CCOC(=O)c1ccc(NC(=O)C(C)(CCl)SC)cc1` (configuration not stated), the activation is inactive: 2.93%. With `O=C(O)C(=O)c1ccc(N(CCCl)CCCl)cc1` the figure was inactive: -0.765%. With `O=C(Nc1ccncc1[N+](=O)[O-])c1ccc([N+](=O)[O-])cc1[N+](=O)[O-]` the figure was inactive: 0.858%. With `O=C(COc1ccccc1)OC1CN2CCC1CC2` (configuration not stated), the activation is inactive: 0.312%. On to `COC(=O)C1(C)COP(=O)(N2CCCC2)OC1` (configuration not stated), for which the activation was inactive: -0.43%.

For `COP1(=S)c2c(C)nn(CCC#N)c2N=C(c2ccc(F)cc2)N1C` (configuration not stated), the activation is inactive: 0.509%. Under `Cc1cc(SC(NC=O)C(Cl)(Cl)Cl)ncn1` (configuration not stated) stands inactive: 17%. Turning to `O=P(Nc1ccccn1)(c1cccc2ccccc12)c1cccc2ccccc12`, the activation was inactive: 0.4%. With `O=[N+]([O-])c1ccc(Nc2ccc(Oc3ccc([N+](=O)[O-])cc3[N+](=O)[O-])cc2)c([N+](=O)[O-])c1` the figure was inactive: -0.423%. `CCOC(=O)Nc1cccc([As](=O)(O)O)c1`: the activation was inactive: -0.571%. Under `COP(=O)(OC)N1CC1c1ccccc1` (configuration not stated) stands inactive: -0.118%. Under `Cc1cc(SC(NC(=O)c2ccccc2)C(Cl)(Cl)Cl)nc(C(C)C)n1` (configuration not stated) stands inactive: 3.46%. With `CCCCOc1ccc(C(=O)NCC2(N3CCCCC3)CCCCC2)cc1OC` the figure was inactive: 0.145%; with `O=C(O)C(O)c1ccc(N(CCCl)CCCl)cc1` (configuration not stated), inactive: 1.66%; with `CCOC(=O)Nc1ccc([As](=O)(O)O)c(O)c1`, inactive: 0.0692%. Regarding `CC1CCNP(=O)(N(CCCl)CCCl)O1` (configuration not stated), the activation is inactive: 0.258%.
